# Data: PubChem BioAssay AID504937 (National Center for Advancing Translational Sciences (NCATS), 2011)
# Amino acid sequences for entries named in this document (tags omitted). Residues count along the entry.
# UniProt P17405, 47-631 limits assumed: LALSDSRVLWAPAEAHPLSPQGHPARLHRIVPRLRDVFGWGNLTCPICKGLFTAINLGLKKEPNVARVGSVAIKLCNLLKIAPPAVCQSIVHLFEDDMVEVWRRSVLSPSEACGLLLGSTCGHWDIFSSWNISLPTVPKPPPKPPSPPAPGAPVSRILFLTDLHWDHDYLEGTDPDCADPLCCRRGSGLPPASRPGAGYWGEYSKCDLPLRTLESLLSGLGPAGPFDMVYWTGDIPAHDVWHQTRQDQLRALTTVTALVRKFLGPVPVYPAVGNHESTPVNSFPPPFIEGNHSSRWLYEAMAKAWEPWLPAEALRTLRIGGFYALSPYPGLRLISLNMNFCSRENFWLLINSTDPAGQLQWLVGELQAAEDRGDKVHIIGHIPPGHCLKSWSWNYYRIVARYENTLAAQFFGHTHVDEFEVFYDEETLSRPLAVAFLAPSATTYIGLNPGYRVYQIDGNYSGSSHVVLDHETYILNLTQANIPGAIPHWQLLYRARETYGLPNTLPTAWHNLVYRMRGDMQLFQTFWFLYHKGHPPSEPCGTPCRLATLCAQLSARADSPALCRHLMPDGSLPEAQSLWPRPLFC
# This is a selection; strong and weak results do not stand in their true shares. Active and inactive are the calls of the source. The call rests on the fitted dose curve; in most records, active means well fitted inhibition curve with a large enough effect; inconclusive means small, poorly fitted or top-dose-only effect; inactive means no such curve, though single readings can be large or run the other way.
# Molecular target: Sphingomyelin phosphodiesterase (Homo sapiens) (UniProt P17405)
# Assay: Inhibitors of Secretory Acid Sphingomyelinase (S-ASM): qHTS
# Details: placental ASM, HMU-PC fluorogenic substrate (series up to 57.5 µM), 60 min; at 57.5 µM (top of the series)
row,Structure (SMILES),"activity change, negative = inhibition"
1,CCOC(=O)c1ccc(NP(C)(=O)Oc2ccc(Cl)cc2)cc1 (stereo unspecified),inactive: -0.914%
2,CP(=O)(OC12CC3CC(CC(C3)C1)C2)OC12CC3CC(CC(C3)C1)C2,inactive: -3.18%
3,Nc1ccc2c(ccc3cccnc32)n1.O=[N+]([O-])c1cc([N+](=O)[O-])c(O)c([N+](=O)[O-])c1,inactive: 12.3%
4,CN(C)C(=O)c1c([N+](=O)[O-])cc([N+](=O)[O-])cc1[N+](=O)[O-],inactive: 4.55%
5,COc1ccccc1OP(C)(=O)Nc1ccccc1Br (stereo unspecified),inactive: 2.84%
6,CC(C)(C)c1ccc(OP(C)(=O)O)cc1,inactive: 2.86%
7,CP(=O)(Nc1ccc(Cl)cc1)Oc1ccc(F)cc1 (stereo unspecified),inactive: 4.8%
8,COc1ccccc1OP(C)(=O)Nc1c(C)n(C)n(-c2ccccc2)c1=O (stereo unspecified),inactive: -0.513%
9,O=C(OCCCN1CCCC1)C(O)(c1ccccc1)C1CCCCC1 (stereo unspecified),inactive: 5.11%
10,CP(=O)(Oc1ccccc1)N1CCOC1=O (stereo unspecified),inactive: 2.68%
11,CCc1ccc(OP(C)(=O)Nc2cccnc2)cc1 (stereo unspecified),inactive: -3.12%
12,CCN(CC)CC(O)COC(=O)C(O)(c1ccccc1)C1CCCCC1 (stereo unspecified),inactive: 5.63%
13,CP(=O)(Nc1ccccn1)Oc1ccccc1 (stereo unspecified),inactive: 5.3%
14,COc1ccccc1OP(C)(=O)Nc1ccc(C)cc1C (stereo unspecified),inactive: -1.92%
15,CCc1ccc(OP(C)(=O)O)cc1,inactive: 7.15%
16,Cc1c(NP(C)(=O)Oc2ccc(C(C)C)cc2)c(=O)n(-c2ccccc2)n1C (stereo unspecified),inactive: 3.63%
17,COc1ccc(OP(C)(=O)Nc2ccccn2)cc1 (stereo unspecified),inactive: -2.15%
18,CN(C)CCOC(=O)C(O)(c1ccccc1)C1CCCC1 (stereo unspecified),inactive: 5.82%
19,COc1ccccc1OP(C)(=O)Nc1ccc(Br)cc1 (stereo unspecified),inactive: -0.0402%

row,Structure (SMILES),"activity change, negative = inhibition"
1,CP(=O)(Nc1ccc(Cl)cc1Cl)Oc1ccccc1 (stereo unspecified),inactive: 5.45%
2,CP(=O)(OCCOc1ccccc1)OCCOc1ccccc1,inactive: -2.73%
3,COc1ccccc1OP(C)(=O)Nc1ccc(C)c(C)c1 (stereo unspecified),inactive: 4.58%
4,Cc1cc(C)cc(OP(C)(=O)Nc2cccc(C(F)(F)F)c2)c1 (stereo unspecified),inactive: 3.56%
5,CP(=O)(Nc1ccccc1)Oc1ccc(F)cc1 (stereo unspecified),inactive: 6.49%
6,CCCCCOc1ccc(NP(C)(=O)Oc2ccc(Cl)cc2Cl)cc1 (stereo unspecified),inactive: -10.3%
7,Cc1c([N+](=O)[O-])cc([N+](=O)[O-])c(Br)c1[N+](=O)[O-],inactive: -2.62%
8,CCN(CC)CCCOC(=O)C(O)(c1ccccc1)C1CCCCC1 (stereo unspecified),inactive: -2.39%
9,CCOC(=O)c1ccc(NP(C)(=O)Oc2ccc(F)cc2)cc1 (stereo unspecified),inactive: 3.85%
10,COc1ccc(OP(C)(=O)Nc2ccc(SC(F)(F)F)cc2)cc1 (stereo unspecified),inactive: -1.52%
11,O=C(OCCN1CCN(CCOCc2ccccc2)CC1)C(O)(c1ccccc1)c1ccccc1,inactive: 0.468%
12,CP(=O)(Nc1ccccc1F)Oc1ccccc1 (stereo unspecified),inactive: -2.54%
13,CC(C)c1ccc(OP(C)(=O)Nc2ccc(SC(F)(F)F)cc2)cc1 (stereo unspecified),inactive: -16.9%
14,Cc1ccccc1NP(C)(=O)Nc1ccccc1C,inactive: 0.536%
15,CP(=O)(Nc1ccc2c(c1)OCCO2)Oc1ccccc1 (stereo unspecified),inactive: -0.895%
16,CCOP(C)(=S)SCC(=O)NC(C)(CC)C(=O)O (stereo unspecified),inactive: 4.92%
17,CP(=O)(Nc1ccc(SC(F)(F)F)cc1)Oc1ccc(F)cc1 (stereo unspecified),inactive: -0.593%
18,Cc1c(C(c2ccc3c(c2)OCO3)c2c(C)n(C)n(-c3ccccc3)c2=O)c(=O)n(-c2ccccc2)n1C.O=[N+]([O-])c1cc([N+](=O)[O-])c(O)c([N+](=O)[O-])c1,inactive: 6.87%
19,O=[N+]([O-])c1ccc(OP2(=O)COCCO2)cc1 (stereo unspecified),inactive: 3.58%

row,Structure (SMILES),"activity change, negative = inhibition"
1,Cc1cc(-c2cccc3ccccc23)c(C)cn1.O=[N+]([O-])c1cc([N+](=O)[O-])c(O)c([N+](=O)[O-])c1,inactive: -0.102%
2,CN(C)CCOC(=O)C(O)(c1ccccc1)C1CCCCC1 (stereo unspecified),inactive: -1.68%
3,COc1ccc(NP(C)(=O)Oc2ccccc2OC)cc1 (stereo unspecified),inactive: -3.07%
4,COc1ccc(OP(C)(=O)Nc2cccc(Br)c2)cc1 (stereo unspecified),inactive: 3.23%
5,CCCOc1ccc(NP(C)(=O)Oc2ccc(Cl)cc2)cc1 (stereo unspecified),inactive: -1.92%
6,CP(=O)(Nc1ccc(SC(F)(F)F)cc1)Oc1ccccc1 (stereo unspecified),inactive: -1.05%
7,COc1ccccc1OP(C)(=O)Nc1c(C)cccc1C (stereo unspecified),inactive: 3.69%
8,CN1CCCCC1COC(=O)C1(O)c2ccccc2CCc2ccccc21 (stereo unspecified),inactive: 0.571%
9,CC1=C2N=C(C=C3N=C(C(C)=C4[N-][C@@](C)([C@@H]5N=C1[C@](C)(CCC(=O)NC[C@@H](C)OP(=O)([O-])O[C@H]1[C@@H](O)[C@@H](n6cnc7cc(C)c(C)cc76)O[C@@H]1CO)[C@H]5CC(N)=O)[C@@](C)(CC(N)=O)[C@@H]4CCC(N)=O)[C@@](C)(CC(N)=O)[C@@H]3CCC(N)=O)C(C)(C)[C@@H]2CCC(N)=O.[C-]#N.[Co+3],inactive: -1.25%
10,O=[N+]([O-])c1cc([N+](=O)[O-])c(Nc2nnnn2CCO)c([N+](=O)[O-])c1,inactive: -19.7%
11,Cc1nc2ccc3ccccc3c2s1.O=[N+]([O-])c1cc([N+](=O)[O-])c(O)c([N+](=O)[O-])c1,inactive: -3.11%
12,O=[N+]([O-])c1cc([N+](=O)[O-])c(-c2cnn(-c3ccccc3)c2)c([N+](=O)[O-])c1,inactive: -2.85%
13,O=[N+]([O-])c1cc([N+](=O)[O-])c(-n2nnc3ccccc32)c([N+](=O)[O-])c1,inactive: -0.878%
14,Cc1ccc(C)c(NP(C)(=O)Oc2ccccc2)c1 (stereo unspecified),inactive: 1.04%
15,Cc1cc(C)cc(OP(C)(=O)Nc2ccccn2)c1 (stereo unspecified),inactive: 4.15%
16,CP(=O)(Nc1cccc(Br)c1)Oc1ccccc1 (stereo unspecified),inactive: -2.04%
17,CCOC(=O)c1ccc(NP(C)(=O)Oc2cc(C)cc(C)c2)cc1 (stereo unspecified),inactive: -1.15%
18,Cc1cc(C)cc(OP(C)(=O)Nc2ccc(C)cc2C)c1 (stereo unspecified),inactive: 1.08%
